Laboratory results: patent publication US8809010B2, “Method for prophylactic treatment of alzheimer's disease using inhibitors of glutaminyl cyclase and glutamate cyclases” (Probiodrug AG, priority 2003, dated 2014)
Like-named read-outs stand apart in the source and are kept apart here.

Sequences of proteins named here, by UniProt entry; tags and fusion partners are left off. Residues count along the entry.
UniProt O81226, 1-288: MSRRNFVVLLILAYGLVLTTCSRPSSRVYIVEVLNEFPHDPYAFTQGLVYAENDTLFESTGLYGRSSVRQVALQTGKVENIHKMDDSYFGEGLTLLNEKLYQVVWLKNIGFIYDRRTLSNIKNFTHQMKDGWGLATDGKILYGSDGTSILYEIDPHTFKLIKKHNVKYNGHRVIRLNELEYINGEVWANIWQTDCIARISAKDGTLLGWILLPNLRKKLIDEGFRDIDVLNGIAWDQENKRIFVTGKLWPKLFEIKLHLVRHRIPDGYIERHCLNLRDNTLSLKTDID

Key:
Papaya QC [1] = biological target: T1, Papaya QC (Carica papaya, UniProt O81226); experiment: Fluorometric QC assay with H-Gln-AMC; details: H-Gln-AMC as substrate
Papaya QC [2] = biological target: T1, Papaya QC; experiment: Qualitative substrate conversion (MALDI-TOF / fluorometric)
Papaya QC [3] = biological target: T1, Papaya QC; experiment: Continuous spectrophotometric QC assay (glutamate dehydrogenase coupled), substrate kinetics
[4] = 0.05M Tricine-NaOH, pH 8.0, 0.5 M KCl

In the case of `CC(C)C[C@H](NC(=O)[C@H](CCCNC(=N)N)NC(=O)[C@H](CCCCN)NC(=O)[C@H](Cc1ccccc1)NC(=O)[C@@H](N)CCC(=O)O)C(=O)N[C@@H](C)C(N)=O` [H-Glu-Phe-Lys-Arg-Leu-Ala-NH2], the “inhibition of papaya QC” value (Papaya QC [1]) is reported as “not inhibited”.

With H-Gln(NMe)-Phe-Lys-Ala-Glu-NH2 the “conversion by papaya QC” value (Papaya QC [2]) was “only converted into a pyroglutamyl residue by papaya QC”.

In the case of `NC(=O)CC[C@H](N)C(=O)N[C@@H](CCC(=O)O)C(=O)N1CCC[C@H]1C(N)=O` [[Gln^1]-FPP], the “kcat” value (Papaya QC [3]) is reported as 32.5 ± 0.4 s⁻¹.

With `NC(=O)CC[C@H](NC(=O)[C@@H](N)CCC(N)=O)C(=O)O` [H-Gln-Gln-OH] the “Ki* (mM)” value (Papaya QC [3]; for substrate inhibition) was “n.i”.

With H-Gln-NH2 the Km (Papaya QC [3]) was 433 µM, the “kcat” value (Papaya QC [3]) was 44.8 ± 0.4 s⁻¹ and the “Ki (mM)” value (Papaya QC [3]; 0.05M Tricine-NaOH, pH 8.0) was “n.i”. For the same molecule, the Km (Papaya QC [3]; 0.05M Tricine-NaOH, pH 8.0) was 434 µM, the “kcat” value (Papaya QC [3]; 0.05M Tricine-NaOH, pH 8.0) was 43.4 ± 0.4 s⁻¹ and the “Ki (mM)” value (Papaya QC [3]; [4]) was “n.i”. For the same molecule, the Km (Papaya QC [3]; [4]) was 446 µM, the “kcat” value (Papaya QC [3]; [4]) was 45.2 ± 0.3 s⁻¹ and the “Ki* (mM)” value (Papaya QC [3]; for substrate inhibition) was “n.i”.

With `NC(=O)CCC(N)C(=O)Nc1ccc2ccccc2c1` (stereo not shown) the “kcat” value (Papaya QC [3]) was 51.4 ± 1.4 s⁻¹, the Ki (Papaya QC [3]; 0.05M Tricine-NaOH, pH 8.0) was 1140 µM and the “kcat” value (Papaya QC [3]; 0.05M Tricine-NaOH, pH 8.0) was 48.8 ± 1.0 s⁻¹. The Ki (Papaya QC [3]; [4]) was 1330 µM, the “kcat” value (Papaya QC [3]; [4]) was 47.2 ± 0.8 s⁻¹ and the Ki (Papaya QC [3]; for substrate inhibition) was 1200 µM.

For `CC(C)(C)OC(=O)C(N)CCC(N)=O` (stereo not shown) [H-Gln-OtBu], the “Ki* (mM)” value (Papaya QC [3]; for substrate inhibition) was “n.i”.

In the case of H-Glu(OMe)-Phe-Lys-Arg-Leu-Ala-NH2, the “inhibition of papaya QC” value (Papaya QC [1]) is reported as “not inhibited”.

`NC(=O)CC[C@H](N)C(=O)NCC(=O)O` [H-Gln-Gly-OH] was tested, and the “Ki* (mM)” value (Papaya QC [3]; for substrate inhibition) was “n.i”.

With `C[C@H](NC(=O)[C@@H](N)CCC(N)=O)C(=O)O` [H-Gln-Ala-OH] the “Ki (mM)” value (Papaya QC [3]; 0.05M Tricine-NaOH, pH 8.0) was “n.i”, the “Ki (mM)” value (Papaya QC [3]; [4]) was “n.i” and the “Ki* (mM)” value (Papaya QC [3]; for substrate inhibition) was “n.i”.

For H-Glu(OMe)-βNA, the “conversion by papaya QC” value (Papaya QC [2]) was “None of these compounds were converted”.

With `CC(C)[C@H](NC(=O)[C@@H](N)CCC(N)=O)C(=O)O` [H-Gln-Val-OH] the “Ki* (mM)” value (Papaya QC [3]; for substrate inhibition) was “n.i”.

For `NC(=O)CC[C@H](N)C(=O)N[C@@H](Cc1ccc(O)cc1)C(=O)O` [H-Gln-Tyr-OH], the “Ki* (mM)” value (Papaya QC [3]; for substrate inhibition) was “n.i”.

`CSCC[C@H](NC(=O)[C@H](Cc1c[nH]c2ccccc12)NC(=O)CNC(=O)[C@H](Cc1ccc(O)cc1)NC(=O)[C@H](C)NC(=O)[C@H](CCC(=O)O)NC(=O)[C@H](CCC(=O)O)NC(=O)[C@H](CCC(=O)O)NC(=O)[C@H](CCC(=O)O)NC(=O)[C@H](CCC(=O)O)NC(=O)[C@H](CC(C)C)NC(=O)[C@H](Cc1c[nH]c2ccccc12)NC(=O)[C@@H]1CCCN1C(=O)CNC(=O)[C@@H](N)CCC(N)=O)C(=O)N[C@@H](CC(=O)O)C(=O)N[C@@H](Cc1ccccc1)C(N)=O` was tested, and the “kcat” value (Papaya QC [3]) was 25.8 ± 0.5 s⁻¹.

With H-Glu-βNA the “conversion by papaya QC” value (Papaya QC [2]) was “None of these compounds were converted”.

For H-Gln-Lys(Gln)-Arg-Leu-Ala-NH2, the “conversion by papaya QC” value (Papaya QC [2]) was “converted”.

`NC(=O)CC[C@H](N)C(=O)N[C@@H](CCC(=O)O)C(=O)O` [H-Gln-Glu-OH] was tested, and the “Ki (mM)” value (Papaya QC [3]; 0.05M Tricine-NaOH, pH 8.0) was “n.i”, the “Ki (mM)” value (Papaya QC [3]; [4]) was “n.i” and the “Ki* (mM)” value (Papaya QC [3]; for substrate inhibition) was “n.i”.
